Patent US7053160B1, “Metallocene monohalogenides” (Basell Polyolefine GmbH, priority 1998, dated 2006)

Experiment: Solubility comparison in toluene at room temperature
Assay type: physicochemical
Conditions: about 50 mg of solid dissolved

CC1=Cc2c(ccc3ccccc23)[C]12[Si](C)(C)[C]1(C(C)=Cc3c1ccc1ccccc31)[Zr]2([Cl])[O]c1cc(C)ccc1C(C)C (stereo not shown) [compound 3, Dimethylsilanediylbis(2-methyl-4,5-benzoindenyl)zirconium monochloride mono(2-isopropyl-5-methylphenoxide)]
solubility: about 18 mmol/l
